# From ChEMBL document CHEMBL4024706 (Eur J Med Chem, 2017)
# Amino acid sequences for entries named in this document (tags omitted). A change or cut given only in a name is not applied to a line headed by its entry.
# UniProt Q06187: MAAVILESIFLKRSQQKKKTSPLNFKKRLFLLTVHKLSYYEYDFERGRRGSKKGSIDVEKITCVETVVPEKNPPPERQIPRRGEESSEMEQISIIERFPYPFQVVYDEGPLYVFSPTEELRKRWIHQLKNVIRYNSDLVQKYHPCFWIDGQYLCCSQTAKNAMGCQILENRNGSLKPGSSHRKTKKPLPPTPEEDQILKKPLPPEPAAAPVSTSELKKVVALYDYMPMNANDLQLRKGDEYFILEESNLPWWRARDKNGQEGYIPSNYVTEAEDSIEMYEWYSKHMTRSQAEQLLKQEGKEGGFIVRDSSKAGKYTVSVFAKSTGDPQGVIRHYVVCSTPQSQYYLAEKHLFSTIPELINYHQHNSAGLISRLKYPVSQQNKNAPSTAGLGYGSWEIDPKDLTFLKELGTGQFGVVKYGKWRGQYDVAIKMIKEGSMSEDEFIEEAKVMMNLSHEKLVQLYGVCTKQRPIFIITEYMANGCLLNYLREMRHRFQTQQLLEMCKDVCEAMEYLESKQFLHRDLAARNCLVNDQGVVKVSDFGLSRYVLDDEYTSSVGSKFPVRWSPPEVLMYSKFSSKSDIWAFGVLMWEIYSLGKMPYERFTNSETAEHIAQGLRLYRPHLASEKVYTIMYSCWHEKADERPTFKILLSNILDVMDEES
# What was measured:
# [1] = target: T1, Tyrosine-protein kinase BTK (Homo sapiens, UniProt Q06187); experiment: Reversible inhibition of full length recombinant human N-terminal His tagged […] expressed in baculovirus infected Sf9 insect cells using poly (Glu,Tyr)4:1 as substrate pretreated for 2 to 60 mins followed by substrate addition after 1 hr by ADP-Glo luminescence assay
# [2] = target: T1, Tyrosine-protein kinase BTK; experiment: Inhibition of full length recombinant human N-terminal His tagged […] expressed in baculovirus infected Sf9 insect cells using poly (Glu,Tyr)4:1 as substrate pretreated for 60 mins followed by substrate addition after 1 hr by ADP-Glo luminescence assay
pKi [1],pIC50 [2],SMILES
6.68,8.02,C=CC(=O)Nc1cccc(Nc2nc(Nc3ccc(Oc4ccnc(C(=O)NC)c4)cc3)ncc2F)c1
7.85,7.92,C=CC(=O)N1CCc2ccc(-n3c(=O)ccc4cnc5ccc(-c6cnn(C)c6)cc5c43)cc21

# pIC50, pKi: −log10 of the molar value.
